# Test results from patent publication US6630472B1, “Compounds, pharmaceutical compositions, and methods for stimulating neuronal growth and elongation” (priority 1998, dated 2003).
# The chains behind the UniProt entries cited, without tags or fusion partners.
# UniProt P62942, whole entry: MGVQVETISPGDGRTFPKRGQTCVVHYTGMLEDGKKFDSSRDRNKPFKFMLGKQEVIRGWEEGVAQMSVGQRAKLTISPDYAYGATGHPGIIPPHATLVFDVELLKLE
# Biological target: FKBP12 (Homo sapiens, UniProt P62942)
# Test: rotamase inhibition assay (N-succinyl-Ala-Ala-Pro-Phe-p-nitroanilide, chymotrypsin-coupled)
# Settings: read-out: Rotamase Ki(app); apparent Ki; NI = no inhibition at the concentrations tested
row,Compound,Ki [nM]
1,CCC(C)(C)C(=O)C(=O)N1C2CCCC1C1CN(Cc3ccc(OC)cc3)C(=O)CN1C2=O (stereo not drawn),> 50000
2,COc1cc(C(=O)C(=O)N2C3CCCC2C(=O)NCC3)cc(OC)c1OC (stereo not drawn),3300
3,COc1cc(C(=O)C(=O)N2C3CCCC2C2c4ccccc4CCCN2C3=O)cc(OC)c1OC (stereo not drawn),880
4,COc1cc(C(=O)C(=O)N2C3CCCC2C2=Cc4cc(C(F)(F)F)cc(C(F)(F)F)c4CN2C3=O)cc(OC)c1OC (stereo not drawn),370
5,CC(=O)OCC1(C(=O)C(=O)N2C3CCCC2C2=Cc4cc(C(F)(F)F)cc(C(F)(F)F)c4CN2C3=O)CCCC1 (stereo not drawn),> 50000
6,CCCNC(=O)CN1C(=O)C2CCCC(C1C(OC)OC)N2C(=O)C(=O)C(C)(C)CC (stereo not drawn),31400
7,"CCCCCC1C(=O)N(C2CCCC2)C=C2C3CCCC(C(=O)N21)N3C(=O)C(=O)c1cc(OC)c(OC)c(OC)c1 (single isomer, unassigned) [158]",776
8,COc1cc(C(=O)C(=O)N2C3CCCC2C2CN(CC(OC)OC)C(=O)CN2C3=O)cc(OC)c1OC (stereo not drawn),350
9,CCC(C)(C)C(=O)C(=O)N1C2CCCC1C1CN(CC(OC)OC)C(=O)CN1C2=O (stereo not drawn),> 50000
10,COc1cc(C(=O)C(=O)N2C3CCCC2C(=O)N(CCCCc2ccccc2)CC3)cc(OC)c1OC (stereo not drawn),239
11,CCC(C)(C)C(=O)C(=O)N1C2CCCC1C1c3cc(OC)ccc3CCN1C2=O (stereo not drawn),1600
12,CCC(C)(C)C(=O)C(=O)N1C2CCCC1C(=O)N(CCCCc1ccccc1)CC2 (stereo not drawn),5000
13,CCC(C)(C)C(=O)C(=O)N1C2CCCC1C(=O)N(CCOCc1ccccc1)C2 (stereo not drawn),2300
14,CCC(C)(C)C(=O)C(=O)N1C2CCCC1C1c3ccccc3CCN1C2=O (stereo not drawn),3200
15,CCC(C)(C)C(=O)C(=O)N1C2C=CN(CCCCc3ccccc3)C(=O)C1CCC2 (stereo not drawn),381
16,CCC(C)(C)C(=O)C(=O)N1C2CCCC1C1c3ccccc3CCCN1C2=O (stereo not drawn),16000
17,CCC(C)(C)C(=O)C(=O)N1C2CCCC1C1c3ccc(OC)cc3CCN1C2=O (stereo not drawn),620
18,"CCCCCC1C(=O)N(C2CCCC2)C=C2C3CCCC(C(=O)N21)N3C(=O)C(=O)c1cc(OC)c(OC)c(OC)c1 (single isomer, unassigned) [157]",1600
19,COc1ccc2c(c1)C1C3CCCC(C(=O)N1CC2)N3C(=O)C(=O)c1cc(OC)c(OC)c(OC)c1 (stereo not drawn),80
20,CCCN1C=C2C3CCCC(C(=O)N2CC1=O)N3C(=O)C(=O)c1cc(OC)c(OC)c(OC)c1 (stereo not drawn),130
21,COc1ccc2c(c1)CCN1C(=O)C3CCCC(C21)N3C(=O)C(=O)c1cc(OC)c(OC)c(OC)c1 (stereo not drawn),175
22,CCOC(=O)CN1C(=O)C2CCCC(C1C(OC)OC)N2C(=O)C(=O)c1cc(OC)c(OC)c(OC)c1 (stereo not drawn),170
23,COc1ccc(CN2CC3C4CCCC(C(=O)N3CC2=O)N4C(=O)C(=O)c2cc(OC)c(OC)c(OC)c2)cc1 (stereo not drawn),220
24,CCCN1C=C2C3CCCC(C(=O)N2CC1=O)N3C(=O)C(=O)C(C)(C)CC (stereo not drawn),1400
